Results from BindingDB's records for doi:10.7270/Q2Q52NH6 (Catholic University of Daegu, 2017).

Amino acid sequences for entries named in this document (tags omitted). A change or cut given only in a name is not applied to a line headed by its entry.
UniProt P22303: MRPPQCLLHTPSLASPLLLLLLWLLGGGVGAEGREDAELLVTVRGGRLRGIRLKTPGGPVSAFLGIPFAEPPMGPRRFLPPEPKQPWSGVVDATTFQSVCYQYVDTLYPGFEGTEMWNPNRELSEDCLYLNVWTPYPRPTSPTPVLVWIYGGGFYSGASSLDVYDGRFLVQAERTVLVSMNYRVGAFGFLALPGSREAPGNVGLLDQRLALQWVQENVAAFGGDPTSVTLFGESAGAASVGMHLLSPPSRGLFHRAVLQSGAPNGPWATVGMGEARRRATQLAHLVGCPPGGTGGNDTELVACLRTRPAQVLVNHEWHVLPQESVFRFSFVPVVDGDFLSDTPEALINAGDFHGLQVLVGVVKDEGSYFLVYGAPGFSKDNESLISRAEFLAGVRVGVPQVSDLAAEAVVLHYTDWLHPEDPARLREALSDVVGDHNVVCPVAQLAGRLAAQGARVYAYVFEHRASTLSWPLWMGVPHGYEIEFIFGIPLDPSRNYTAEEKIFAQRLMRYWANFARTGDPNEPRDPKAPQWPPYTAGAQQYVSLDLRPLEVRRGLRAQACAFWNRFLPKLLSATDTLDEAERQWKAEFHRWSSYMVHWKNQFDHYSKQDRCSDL

Molecular target: Acetylcholinesterase (Homo sapiens, UniProt P22303)
Experiment: Acetylcholinesterase Inhibitory Assay
Conditions: pH 8; 25 °C
Procedure: Briefly, 140 μL of sodium phosphate buffer (pH 8.0), 20 μL of each tested compound with different concentrations (4, 20, and 100 μM) and 20 μL enzyme solution were mixed and incubated at room temperature for 15 min. The reactions were initiated by the addition of 10 μL of 0.01 M 5,5'-dithiobis(2-nitrobenzoic acid) (DTNB) and 10 μL of 0.075 ATCI. […] The reaction was independently experimented for three times and recorded in 96-well microplates using a microplate reader (VersaMax).

Structure (SMILES): COc1ccc2cc3[n+](cc2c1OC)CCc1cc2c(cc1-3)OCO2 [Berberinechloride]
- IC50: 770 nM
